Assay results published in patent publication US5100881A (priority 1989, dated 1992).

Key:
P 388 leukemia = test: Antitumor activity against P 388 leukemia in mice; format: in vivo; settings: for SURVIVORS 30 days: B6D2F1 mice; for SURVIVORS 30 days / SURVIVORS 60 days: n=6; for SURVIVORS 60 days: survivors at 60 days = long-term remission; for T/C % (mean survival time test group over untreated control group): values above 125% signify antitumor activity
L1210 cells = test: In vitro cytotoxicity, Microculture Tetrazolium Assay; format: cell-based; settings: read-out: IC50 (concentration which 50% inhibits the proliferation of the control cells), 48 hours incubation
[1] = system: human lung cancer grafted into NUDE (LX1) mice; test: Antitumor activity on a human lung cancer grafted into NUDE (LX1) mice; settings: 0.70 mg/kg i.p. at D0, D3, D6 and D9

For CCOP(=O)(OCC)C(NC(=O)[C@@]1(O)[C@H](O)[C@]2(CC)C=CCN3CC[C@@]4(c5cc([C@@]6(C(=O)OC)C[C@@H]7CN(CCc8c6[nH]c6ccccc86)C[C@](O)(CC)C7)c(OC)cc5N(C=O)[C@@H]14)[C@@H]32)C(C)C (single isomer, unassigned), the “SURVIVORS 30 days” value (P 388 leukemia; 0.1 mg/kg i.p. one day after inoculation of 10^6 leukemic cells) was 6/6, the “SURVIVORS 60 days” value (P 388 leukemia; 0.1 mg/kg i.p. one day after inoculation) was 6/6 and the “T/C % (mean survival time test group over untreated control group)” value (P 388 leukemia; 0.1 mg/kg i.p.) was over 550%. The “curative effect in P 388 mice (in words)” value (P 388 leukemia; dose twice as small as that of NDVAMPP) was “curative for all the mice” and the IC50 (L1210 cells) was 0.35 nM.

For CCOP(=O)(OCC)C(NC(=O)[C@@]1(O)[C@H](O)[C@]2(CC)C=CCN3CC[C@@]4(c5cc([C@@]6(C(=O)OC)C[C@@H]7CN(CCc8c6[nH]c6ccccc86)C[C@](O)(CC)C7)c(OC)cc5N(C)[C@@H]14)[C@@H]32)C(C)C (single isomer, unassigned), the “SURVIVORS 30 days” value (P 388 leukemia; 0.2 mg/kg i.p. one day after inoculation of 10^6 leukemic cells) was 5/6, the “SURVIVORS 60 days” value (P 388 leukemia; 0.2 mg/kg i.p. one day after inoculation) was 5/6 and the “T/C % (mean survival time test group over untreated control group)” value (P 388 leukemia; 0.2 mg/kg i.p.) was 405%.

With CCOP(=O)(OCC)C(NC(=O)[C@@]1(O)[C@H](O)[C@]2(CC)C=CCN3CC[C@@]4(c5cc([C@@]6(C(=O)OC)C[C@@H]7C=C(CC)CN(Cc8c6[nH]c6ccccc86)C7)c(OC)cc5N(C)[C@@H]14)[C@@H]32)C(C)C (single isomer, unassigned) the “T/C (tumor volume treated animals/tumor volume control animals)” value [1] was 21 and the “SGD (Standard Growth Delay)” value ([1]; tumor 5 mm x 5 mm at start) was 3.1.
